Source: patent publication US10105357B2, “Indication of antibiotic drugs for preparation of cancer inhibition pharmaceutical composition” (LAUNX BIOMEDICAL CO., LTD., priority 2014, dated 2018)

Assays:
Details in all cases: repeated experiment
[1] = test system: BxPC-3; assay: Cell viability analysis, pancreatic cancer BxPC-3; type: cell-based, human
[2] = test system: AsPC-1; assay: Cell viability analysis, pancreatic cancer AsPC-1; type: cell-based, human
[3] = test system: A549 (Lung Adenocarcinoma); assay: Cell viability analysis, lung cancer A549
[4] = test system: HI650 (Lung Adenocarcinoma); assay: Cell viability analysis, lung cancer HI650
[5] = test system: HeLa (Cervix Adenocarcinoma); assay: Cell viability analysis, cervical cancer HeLa

CN[C@H](CC(C)C)C(=O)N[C@H]1C(=O)N[C@@H](CC(N)=O)C(=O)N[C@H]2C(=O)N[C@H]3C(=O)N[C@H](C(=O)N[C@H](C(=O)O)c4cc(O)cc(O)c4-c4cc3ccc4O)[C@H](O)c3ccc(c(Cl)c3)Oc3cc2cc(c3O[C@@H]2O[C@H](CO)[C@@H](O)[C@H](O)[C@H]2O[C@H]2C[C@](C)(N)[C@H](O)[C@H](C)O2)Oc2ccc(cc2Cl)[C@H]1O.Cl [Vancomycin HCl (Vancocin)]
The results of antibiotic drug inhibiting cancer cell lines (cell viability analysis), BxPC-3 [1]: 79.16 | The results of antibiotic drug inhibiting cancer cell lines (cell viability analysis), AsPC-1 [2]: 85.55 | The results of antibiotic drug inhibiting cancer cell lines (cell viability analysis), A549 [3]: 86.65 | The results of antibiotic drug inhibiting cancer cell lines (cell viability analysis), H1650 [4]: 82.92 | The results of antibiotic drug inhibiting cancer cell lines (cell viability analysis), HeLa [5]: 78.82
